The subject of this series is cMdr1-KO MDCK-EV cells. Kind of series: In vitro permeability (Papp), transwell transport.

With 3H-atenolol, where the note is “5 µM, 120 min, n=3, mean (CV%)”, the “Papp Apical to basolateral” value is on record as 1.47 (25.2) 10^−6 cm/s and the “Papp Basolateral to apical” value is 1.45 (8.97) x 10-6 cm/s. Also, the Efflux ratio (ratio of mean values) is listed as 0.985.

The record behind these values is article PMC11706420, “Establishing a physiologically based pharmacokinetic framework for aldehyde oxidase and dual aldehyde oxidase‐CYP substrates” (CPT: Pharmacometrics & Systems Pharmacology, 2024).
